{"source": "patent US4683230A", "about": "“BMY-28121, a new antitumor antibiotic” (Bristol-Myers Company, priority 1985, dated 1987)", "key": {"[1]": {"test_system": "Staphylococcus epidermidis D153", "format": "cell-based", "conditions": "nutrient agar, 10^4 CFU/ml"}, "Escherichia coli NIHJ": {"test_system": "Escherichia coli NIHJ", "format": "cell-based", "conditions": "nutrient agar, 10^4 CFU/ml"}}}
{"compound": "CC1(C)S[C@@H]2[C@H](NC(=O)[C@H](N)c3ccccc3)C(=O)N2[C@H]1C(=O)O", "note": "[Ampicillin]", "values": [{"measurement": "MIC", "setting": "[1]", "result": 0.2, "unit": "µg/mL"}, {"measurement": "MIC", "setting": "Escherichia coli NIHJ", "result": 0.2, "unit": "µg/mL"}]}
